Data as given in patent US9440982B2 (Eolas Therapeutics, Inc., priority 2012, dated 2016).

Protein sequences, listed by entry. Tags and fused reporters are not part of them.
UniProt O43614, whole entry: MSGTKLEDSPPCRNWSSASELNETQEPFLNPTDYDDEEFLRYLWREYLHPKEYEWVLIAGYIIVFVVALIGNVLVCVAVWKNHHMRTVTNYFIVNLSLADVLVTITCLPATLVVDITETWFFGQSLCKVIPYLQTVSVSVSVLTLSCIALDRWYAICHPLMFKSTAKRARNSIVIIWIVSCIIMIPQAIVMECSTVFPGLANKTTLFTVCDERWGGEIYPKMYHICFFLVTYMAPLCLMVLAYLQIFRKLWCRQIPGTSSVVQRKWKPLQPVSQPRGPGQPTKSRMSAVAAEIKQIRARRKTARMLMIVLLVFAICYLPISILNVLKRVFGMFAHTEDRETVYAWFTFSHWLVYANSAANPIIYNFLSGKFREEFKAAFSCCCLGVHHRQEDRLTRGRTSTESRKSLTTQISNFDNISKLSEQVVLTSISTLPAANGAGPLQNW

Each compound was assayed against T1, OX2 (Homo sapiens, UniProt O43614) (assay: Orexin receptor cell-based functional assay, [Ca2+]i by FLIPR, CHO-OX2 cells). Details: CHO-OX2 cells, [Ca2+]i by FLIPR, antagonist dose-range 0.1 nM-10 μM, EC90 of OXA; read-out: OX2.
T1 construct: expressed in transfected cells; host or cells: CHO (CHO-OX2, kept under selection antibiotic)

Compound	IC50 [nM]
Cc1nc(C(=O)N2CCC[C@H](C)[C@H]2CNc2ccc(C(F)(F)F)cn2)c(-c2ccc(F)cc2)s1 (racemic) [Example A65, rac-trans-(5-(4-Fluorophenyl)-2-methylthiazol-4-yl)(3-methyl-2-(((5-(trifluoromethyl)pyridin-2-yl)amino)methyl)piperidin-1-yl)methanone]	38
Cc1ccc(-n2nccn2)c(C(=O)N2CCC[C@H](C)[C@H]2CNc2ccc(C(F)(F)F)cn2)c1 (racemic) [Example A67, rac-trans-(3-Methyl-2-(((5-(trifluoromethyl)pyridin-2-yl)amino)methyl)piperidin-1-yl)(5-methyl-2-(2H-1,2,3-triazol-2-yl)phenyl)methanone]	130
Cc1nc(C(=O)N2CCCC(C)C2CNc2ncc(C(F)(F)F)cn2)c(-c2ccc(F)cc2)s1 (racemic) [Example A311, (+/−)-cis-(5-(4-Fluorophenyl)-2-methylthiazol-4-yl)(3-methyl-2-(((5-(trifluoromethyl)pyrimidin-2-yl)amino)methyl)piperidin-1-yl)methanone]	3100
Cc1ccc(-c2cnn(C)c2)c(C(=O)N2CCC[C@@H](C)[C@H]2CNc2nc3ccccc3o2)c1 [Example A2, ((2S,3R)-2-((Benzo[d]oxazol-2-ylamino)methyl)-3-methylpiperidin-1-yl)(5-methyl-2-(1-methyl-1H-pyrazol-4-yl)phenyl)methanone]	> 4000
Cc1ccc(-c2cn[nH]c2)c(C(=O)N2CCC[C@@H](C)[C@H]2CNc2ccc(C(F)(F)F)cn2)c1 [Example A3, ((2S,3R)-3-Methyl-2-(((5-(trifluoromethyl)pyridin-2-yl)amino)methyl)piperidin-1-yl)(5-methyl-2-(1H-pyrazol-4-yl)phenyl)methanone]	> 4000
COc1ncc(-c2ccc(C)cc2C(=O)N2CCC[C@@H](C)[C@H]2CNc2ccc(C(F)(F)F)cn2)cn1 [Example A4, (2-(2-Methoxypyrimidin-5-yl)-5-methylphenyl)((2S,3R)-3-methyl-2-(((5-(trifluoromethyl)pyridin-2-yl)amino)methyl)piperidin-1-yl)methanone]	> 4000
Cc1cncc(-c2ccc(C)cc2C(=O)N2CCC[C@@H](C)[C@H]2CNc2ccc(C(F)(F)F)cn2)c1 [Example A5, ((2S,3R)-3-Methyl-2-(((5-(trifluoromethyl)pyridin-2-yl)amino)methyl)piperidin-1-yl)(5-methyl-2-(5-methylpyridin-3-yl)phenyl)methanone]	3500
Cc1ccc(-c2ccn(C)c2)c(C(=O)N2CCC[C@@H](C)[C@H]2CNc2ccc(C(F)(F)F)cn2)c1 [Example A6, ((2S,3R)-3-Methyl-2-(((5-(trifluoromethyl)pyridin-2-yl)amino)methyl)piperidin-1-yl)(5-methyl-2-(1-methyl-1H-pyrrol-3-yl)phenyl)methanone]	> 4000
Cc1ccc(-c2cnccc2C)c(C(=O)N2CCC[C@@H](C)[C@H]2CNc2ccc(C(F)(F)F)cn2)c1 [Example A8, ((2S,3R)-3-Methyl-2-(((5-(trifluoromethyl)pyridin-2-yl)amino)methyl)piperidin-1-yl)(5-methyl-2-(4-methylpyridin-3-yl)phenyl)methanone]	> 4000
Cc1ccc(-c2ccccn2)c(C(=O)N2CCC[C@@H](C)[C@H]2CNc2ccc(C(F)(F)F)cn2)c1 [Example A9, ((2S,3R)-3-Methyl-2-(((5-(trifluoromethyl)pyridin-2-yl)amino)methyl)piperidin-1-yl)(5-methyl-2-(pyridin-2-yl)phenyl)methanone]	3700
Cc1ccc(-c2cnn(C)c2)c(C(=O)N2CCC[C@@H](C)[C@H]2CNc2nc3ccc(Cl)cc3o2)c1 [Example A10, ((2S,3R)-2-(((6-Chlorobenzo[d]oxazol-2-yl)amino)methyl)-3-methylpiperidin-1-yl)(5-methyl-2-(1-methyl-1H-pyrazol-4-yl)phenyl)methanone]	> 4000
Cc1ccc(-n2nccn2)c(C(=O)N2CCC[C@@H](C)[C@H]2CNc2nc3cc(Cl)ccc3o2)c1 [Example A11, ((2S,3R)-2-(((5-Chlorobenzo[d]oxazol-2-yl)amino)methyl)-3-methylpiperidin-1-yl)(5-methyl-2-(2H-1,2,3-triazol-2-yl)phenyl)methanone]	45
Cc1ccc(-c2cnn(C)c2)c(C(=O)N2CCC[C@@H](C)[C@H]2CNc2nc3cc(Cl)ccc3o2)c1 [Example A12, ((2S,3R)-2-(((5-chlorobenzo[d]oxazol-2-yl)amino)methyl)-3-methylpiperidin-1-yl)(5-methyl-2-(1-methyl-1H-pyrazol-4-yl)phenyl)methanone]	800
Cc1nc(C(=O)N2CCC[C@@H](C)[C@H]2CNc2nc3cc(Cl)ccc3o2)c(-c2ccc(F)cc2)s1 [Example A13, ((2S,3R)-2-(((5-Chlorobenzo[d]oxazol-2-yl)amino)methyl)-3-methylpiperidin-1-yl)(5-(4-fluorophenyl)-2-methylthiazol-4-yl)methanone]	> 4000
Cc1ccc(-n2nccn2)c(C(=O)N2CCC[C@@H](C)[C@H]2CNc2nc3ccc(Cl)cc3o2)c1 [Example A14, ((2S,3R)-2-(((6-Chlorobenzo[d]oxazol-2-yl)amino)methyl)-3-methylpiperidin-1-yl)(5-methyl-2-(2H-1,2,3-triazol-2-yl)phenyl)methanone]	620
Cc1ccc(-n2ncnc2C)c(C(=O)N2CCC[C@@H](C)[C@H]2CNc2ccc(C(F)(F)F)cn2)c1 [Example A16, ((2S,3R)-3-Methyl-2-(((5-(trifluoromethyl)pyridin-2-yl)amino)methyl)piperidin-1-yl)(5-methyl-2-(5-methyl-1H-1,2,4-triazol-1-yl)phenyl)methanone]	> 5000

Same assay, conditions: Table 2; CHO-OX2 cells, EC90 of OXA; read-out: IC50 Bioactivity OX2

Compound	IC50 [nM]
C[C@@H]1CCCN(C(=O)c2ccccc2Oc2ccccc2)[C@@H]1CNc1ccc(C(F)(F)F)cn1 (racemic) [Example 118, rac-cis-(3-Methyl-2-(((5-(trifluoromethyl)pyridin-2-yl)amino)methyl)piperidin-1-yl) (2-phenoxyphenyl)methanone]	> 10000
C[C@@H]1CCCN(C(=O)c2ccnn2-c2ccccc2)[C@@H]1CNc1ccc(C(F)(F)F)cn1 (racemic) [Example 119, rac-cis-(3-Methyl-2-(((5-(trifluoromethyl)pyridin-2-yl)amino)methyl)piperidin-1-yl)(1-phenyl-1H-pyrazol-5-yl)methanone]	> 10000
Cc1nc(C(=O)N2CCC[C@@H](C)[C@H]2CNc2cncc(Cl)n2)c(-c2ccc(F)cc2)s1 (racemic) [Example 123, rac-cis-(2-(((6-Chloropyrazin-2-yl)amino)methyl)-3-methylpiperidin-1-yl)(5-(4-fluorophenyl)-2-methylthiazol-4-yl)methanone]	3200
O=C(NCC1CCC(F)CN1C(=O)c1ccccc1-c1ccccc1)c1cccc2cccnc12 (single isomer, unassigned) [Example 37, N-((1-(Biphenylcarbonyl)-5-fluoropiperidin-2-yl)methyl)quinoline-8-carboxamide]	3
O=C(NC[C@@H]1C[C@H](F)CN1C(=O)c1ccccc1-c1ccccc1)c1cccc2cccnc12 [Example 5, N-(((2S,4S)-1-(Biphenylcarbonyl)-4-fluoropyrrolidin-2-yl)methyl)quinoline-8-carboxamide]	40
O=C1C[C@@H](CNC(=O)c2cccc3cccnc23)N(C(=O)c2ccccc2-c2ccccc2)C1 [Example 6, (S)—N-((1-(Biphenylcarbonyl)-4-oxopyrrolidin-2-yl)methyl)quinoline-8-carboxamide]	700
O=C(NC[C@@H]1C[C@H](O)CN1C(=O)c1ccccc1-c1ccccc1)c1cccc2cccnc12 [Example 126, N-(((2S,4S)-1-([1,1′-Biphenyl]-2-carbonyl)-4-hydroxypyrrolidin-2-yl)methyl)quinoline-8-carboxamide]	8
CO[C@H]1C[C@@H](CNC(=O)c2cccc3cccnc23)N(C(=O)c2ccccc2-c2ccccc2)C1 [Example 127, N-(((2S,4S)-1-([1,1′-Biphenyl]-2-carbonyl)-4-methoxypyrrolidin-2-yl)methyl)quinoline-8-carboxamide]	25
O=C(NC[C@@H]1C[C@@H](F)CN1C(=O)c1ccccc1-c1ccccc1)c1cccc2cccnc12 [Example 128, N-(((2S,4R)-1-(Biphenylcarbonyl)-4-fluoropyrrolidin-2-yl)methyl)quinoline-8-carboxamide]	30
CO[C@@H]1C[C@@H](CNC(=O)c2cccc3cccnc23)N(C(=O)c2ccccc2-c2ccccc2)C1 [Example 129, N-(((2S,4R)-1-([1,1′-biphenyl]-2-carbonyl)-4-methoxypyrrolidin-2-yl)methyl)quinoline-8-carboxamide]	320
CC(=O)O[C@H]1C[C@@H](CNC(=O)c2cccc3cccnc23)N(C(=O)c2ccccc2-c2ccccc2)C1 [Example 131, (3S,5S)-1-([1,1′-Biphenyl]-2-carbonyl)-5-((quinoline-8-carboxamido)methyl)pyrrolidin-3-yl acetate]	40
Cc1nc(-c2ccccc2)c(C(=O)N2CCC(=O)[C@H]2CNC(=O)c2cccc3cccnc23)s1 [Example 132, (R)—N-((1-(2-Methyl-4-phenylthiazole-5-carbonyl)-3-oxopyrrolidin-2-yl)methyl)quinoline-8-carboxamide]	1400
Cc1nc(-c2ccccc2)c(C(=O)N2CCC(F)(F)[C@H]2CNC(=O)c2cccc3cccnc23)s1 [Example 133, (R)—N-((3,3-Difluoro-1-(2-methyl-4-phenylthiazole-5-carbonyl)pyrrolidin-2-yl)methyl)quinoline-8-carboxamide]	1400
Cc1nc(-c2ccccc2)c(C(=O)N2CC[C@@H](O)C[C@H]2CNC(=O)c2cccc3cccnc23)s1 [Example 134, N-(((2S,4R)-4-Hydroxy-1-(2-methyl-4-phenylthiazole-5-carbonyl)piperidin-2-yl)methyl)quinoline-8-carboxamide]	> 10000
